Data published in PMC8247900 (Clinical Pharmacology and Therapeutics, 2021).

Tested on: CYP mRNAs
Test: CYP mRNA induction in HepaRG cells, statements over all CYPs investigated
Conditions: PXR‐knockout HepaRG cells, 72 hours; 10 µM rifampicin

CYP mRNA induction in HepaRG cells lacking PXR: no CYP induction
SMILES: CO[C@H]1/C=C/O[C@@]2(C)Oc3c(C)c(O)c4c(O)c(c(/C=N/N5CCN(C)CC5)c(O)c4c3C2=O)NC(=O)/C(C)=C\C=C\[C@H](C)[C@H](O)[C@@H](C)[C@@H](O)[C@@H](C)[C@H](OC(C)=O)[C@@H]1C [rifampicin]
